Source: PubChem BioAssay AID720704 (The Scripps Research Institute Molecular Screening Center, 2013)
The entries are a selection whose mix differs from that of the whole data set. Active and inactive are the calls of the source. No stated cut-off is given here; in the data, active means inhibition above about 11%; inactive means the rest.

Amino acid sequences for entries named in this document (tags omitted).
UniProt Q01970, whole entry, looked up: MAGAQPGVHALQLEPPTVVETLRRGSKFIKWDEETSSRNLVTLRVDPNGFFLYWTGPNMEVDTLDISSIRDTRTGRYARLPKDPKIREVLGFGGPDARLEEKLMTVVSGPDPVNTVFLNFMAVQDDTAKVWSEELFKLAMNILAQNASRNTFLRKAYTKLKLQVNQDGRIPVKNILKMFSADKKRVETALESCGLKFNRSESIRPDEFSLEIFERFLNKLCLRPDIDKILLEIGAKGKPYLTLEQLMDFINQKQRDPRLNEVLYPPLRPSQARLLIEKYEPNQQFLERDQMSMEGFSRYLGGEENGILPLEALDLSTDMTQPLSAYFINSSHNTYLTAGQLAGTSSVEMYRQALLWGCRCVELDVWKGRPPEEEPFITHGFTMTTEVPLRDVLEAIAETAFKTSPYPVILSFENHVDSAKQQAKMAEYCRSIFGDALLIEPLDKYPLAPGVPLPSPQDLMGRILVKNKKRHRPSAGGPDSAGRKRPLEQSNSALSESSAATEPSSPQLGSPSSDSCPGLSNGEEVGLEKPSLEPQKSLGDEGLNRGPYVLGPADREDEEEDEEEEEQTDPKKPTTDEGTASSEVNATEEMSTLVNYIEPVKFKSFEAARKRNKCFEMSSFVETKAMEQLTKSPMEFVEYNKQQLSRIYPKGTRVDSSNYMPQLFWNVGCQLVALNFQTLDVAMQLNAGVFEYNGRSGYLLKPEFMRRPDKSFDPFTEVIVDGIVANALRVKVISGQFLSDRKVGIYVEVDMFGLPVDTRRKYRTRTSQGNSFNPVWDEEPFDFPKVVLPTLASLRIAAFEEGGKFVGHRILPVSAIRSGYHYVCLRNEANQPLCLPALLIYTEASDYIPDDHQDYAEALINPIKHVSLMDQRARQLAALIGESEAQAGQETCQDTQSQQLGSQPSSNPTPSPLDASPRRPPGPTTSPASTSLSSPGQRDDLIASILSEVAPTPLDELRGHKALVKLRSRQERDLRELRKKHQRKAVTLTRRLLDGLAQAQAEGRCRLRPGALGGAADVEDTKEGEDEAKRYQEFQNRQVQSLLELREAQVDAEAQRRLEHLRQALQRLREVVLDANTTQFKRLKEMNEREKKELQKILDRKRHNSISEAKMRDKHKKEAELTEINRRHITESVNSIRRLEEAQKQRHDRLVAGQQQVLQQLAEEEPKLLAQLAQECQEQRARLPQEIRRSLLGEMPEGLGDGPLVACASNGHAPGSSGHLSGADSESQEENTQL

molecular target: 1-phosphatidylinositol 4,5-bisphosphate phosphodiesterase beta-3 (Homo sapiens) (UniProt Q01970); experiment: phospholipase C beta3 enzyme inhibition – biochemical, fluorescence, primary screen (AID 720704); conditions: Purified PLC-beta3, fluorogenic substrate, at 12.2 µM, stronger effect = higher value;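 further: 0% = median of compound wells on plate and 100% = full blocker control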

Structure (SMILES)	inhibition
CN(C(=O)Cc1ccc(Cl)c(Cl)c1)[C@H]1CC[C@@]2(CCCO2)C[C@@H]1N1CCCC1	inactive: 4.25%
CN(C)C(=O)c1cc([N+](=O)[O-])cc2c1-c1c(cc([N+](=O)[O-])cc1[N+](=O)[O-])C2=O	inactive: -2.28%
O=[N+]([O-])c1ccc2c(c1)nnn2O	inactive: -1.39%
NC(=O)Nc1ccc([As](=O)(O)O)cc1	inactive: 3.23%
[N-]=[N+]=NC1CCCCC1NC(=O)c1cc([N+](=O)[O-])cc([N+](=O)[O-])c1 (centres undefined)	inactive: 1.79%
Cc1ccc(OP(=O)(Nc2ccc([N+](=O)[O-])cn2)Oc2ccc(C)cc2)cc1	inactive: -6.79%
Cc1ccc2nc3c(c(C)c2c1)CC(C(Cl)Cl)S3 (centres undefined)	inactive: -42.2%
COc1cc(C(=O)NCC2(N3CCOCC3)CCCCC2)ccc1OCC(C)C	inactive: -2.87%
O=[N+]([O-])c1ccc(-c2cc([N+](=O)[O-])c(O)c([N+](=O)[O-])c2)cc1	inactive: -5.35%
O=[As](O)(c1ccc(O)cc1)c1ccccc1O	inactive: -0.5%
C[As](=O)(O)c1cccc(C(=O)O)c1	inactive: -4.26%
O=C(OC1CN2CCC1CC2)c1cccc2[nH]cnc12 (centres undefined)	inactive: -10.9%
CCN(CC)C(=S)SC(NC=O)C(Cl)(Cl)Cl (centres undefined)	inactive: -0.66%
CC(C)NC(=O)NP(=O)(Oc1ccccc1)Oc1ccccc1	inactive: -0.23%
ClCCSc1nnc(-c2cccnc2)o1	inactive: 2.61%
CC(C)c1ccc(OP(=O)(Nc2ccccn2)Oc2ccccc2F)cc1 (centres undefined)	inactive: -9.12%
COC(=O)C1(C)COP(=O)(N2CCCCCC2)OC1 (centres undefined)	inactive: 3.32%
O=P1(N(CCCl)CCCl)OCCCN1CCCl (centres undefined)	inactive: 2.52%
O=P1(N(CCCl)CCCl)Nc2ccccc2N1	inactive: -29.9%
COc1cc(I)ccc1[As](=O)(O)O	inactive: 0.77%
COc1ccc2nc(NP(=O)(c3ccccc3)c3ccccc3)sc2c1	inactive: 2.7%
Cc1c2c(nc3ccccc13)SC(C(Cl)Cl)C2 (centres undefined)	inactive: -15.9%

Structure (SMILES)	inhibition
Cc1cc(=O)[nH]c(N[N+](=O)[O-])n1	inactive: 0.49%
O=C(OC1CN2CCC1CC2)C12CC3CC(CC(C3)C1)C2 (centres undefined)	inactive: -1.46%
O=[N+]([O-])c1cc(Oc2ccc([N+](=O)[O-])cc2C(F)(F)F)cc([N+](=O)[O-])c1	inactive: -6.28%
COc1ccc(N/C(=N/P(=O)(N2CCOCC2)N2CCOCC2)N2CCOCC2)cc1	inactive: -6.03%
O=C(O)C(=O)c1ccc(N(CCCl)CCCl)cc1	inactive: -0.73%
O=C(Nc1ccncc1[N+](=O)[O-])c1ccc([N+](=O)[O-])cc1[N+](=O)[O-]	inactive: -4.69%
O=C(COc1ccccc1)OC1CN2CCC1CC2 (centres undefined)	inactive: -0.8%
COC(=O)C1(C)COP(=O)(N2CCCC2)OC1 (centres undefined)	inactive: 5.6%
COP1(=S)c2c(C)nn(CCC#N)c2N=C(c2ccc(F)cc2)N1C (centres undefined)	inactive: -0.39%
CCC(C)N(CC(C)C)C(=S)SC(NC(C)=O)C(Cl)(Cl)Cl (centres undefined)	inactive: -0.43%
O=C(OC1CN2CCC1CC2)c1cccc([N+](=O)[O-])c1 (centres undefined)	inactive: 3.77%
CCOC(=O)c1ccc(NC(=O)C(C)(CCl)SC)cc1 (centres undefined)	inactive: -1.29%
COP(=O)(OC)N1CC1c1ccccc1 (centres undefined)	inactive: 3.83%
Cc1cc(SC(NC(=O)c2ccccc2)C(Cl)(Cl)Cl)nc(C(C)C)n1 (centres undefined)	inactive: -6.39%
CCCCOc1ccc(C(=O)NCC2(N3CCCCC3)CCCCC2)cc1OC	inactive: -5.64%
CCOC(=O)Nc1ccc([As](=O)(O)O)c(O)c1	inactive: -6.17%
O=C(O)C(O)c1ccc(N(CCCl)CCCl)cc1 (centres undefined)	inactive: 1.73%
CC1CCNP(=O)(N(CCCl)CCCl)O1 (centres undefined)	inactive: -3.91%
O=P(Nc1ccccn1)(c1cccc2ccccc12)c1cccc2ccccc12	inactive: -0.85%
Cc1cc(SC(NC=O)C(Cl)(Cl)Cl)ncn1 (centres undefined)	inactive: 2.63%
O=[N+]([O-])c1ccc(Nc2ccc(Oc3ccc([N+](=O)[O-])cc3[N+](=O)[O-])cc2)c([N+](=O)[O-])c1	inactive: -1.31%
CCOC(=O)Nc1cccc([As](=O)(O)O)c1	inactive: -13.1%
